The values below are quoted from earlier work in US20260345598A1 (INTRA-CELLULAR THERAPIES, INC., priority 2023, published 2026).

This data set concerns the target D1 receptor. Particulars: read-out: D1 receptor affinity Ki; cited from earlier work.

Consider `CN1CCN2c3c(cccc31)[C@@H]1CN(CCCC(=O)c3ccc(F)cc3)CC[C@@H]12` [Lumateperone, 4-((6bR,10aS)-3-methyl-2,3,6b,9,10,10a-hexahydro-1H-pyrido[3′,4′: 4,5]pyrrolo[1,2,3-de]quinoxalin-8 (7H)-yl)-1-(4-fluorophenyl)-1-butanone], for which the Ki (usually a dissociation constant, usually derived from enzyme kinetics or from competition with a known ligand) was 52 nM.
